In paper PMC6393490:

Molecular target: FITC-IKKβ_(KKRR)(701–745) (UniProt O14920)
Assay: fluorescence polarisation; fluorescence anisotropy, direct binding; 30 nM N-terminally FITC-labelled IKKβ_(KKRR)(701–745) as reporter, NEMO proteins at varying concentrations; room temperature; 2 mM Tris, 100 mM NaCl, 2 mM DTT, pH 8.0, 0.1 mg/mL IgG, 0.5 mM Thesit; triplicate; quadratic binding equation

Kd [nM] | Substance
22 | NEMO-CC (from UniProt Q9Y6K9 51-112) (domain or fragment)
35 | NEMO-I65M (from UniProt Q9Y6K9 51-112) (domain or fragment)
